For 28 compounds, activation results are on record in PubChem BioAssay AID717 (Columbia University Molecular Screening Center, 2007).

Protein sequences, listed by entry. Tags and fused reporters are not part of them.
UniProt P34913, whole entry, looked up: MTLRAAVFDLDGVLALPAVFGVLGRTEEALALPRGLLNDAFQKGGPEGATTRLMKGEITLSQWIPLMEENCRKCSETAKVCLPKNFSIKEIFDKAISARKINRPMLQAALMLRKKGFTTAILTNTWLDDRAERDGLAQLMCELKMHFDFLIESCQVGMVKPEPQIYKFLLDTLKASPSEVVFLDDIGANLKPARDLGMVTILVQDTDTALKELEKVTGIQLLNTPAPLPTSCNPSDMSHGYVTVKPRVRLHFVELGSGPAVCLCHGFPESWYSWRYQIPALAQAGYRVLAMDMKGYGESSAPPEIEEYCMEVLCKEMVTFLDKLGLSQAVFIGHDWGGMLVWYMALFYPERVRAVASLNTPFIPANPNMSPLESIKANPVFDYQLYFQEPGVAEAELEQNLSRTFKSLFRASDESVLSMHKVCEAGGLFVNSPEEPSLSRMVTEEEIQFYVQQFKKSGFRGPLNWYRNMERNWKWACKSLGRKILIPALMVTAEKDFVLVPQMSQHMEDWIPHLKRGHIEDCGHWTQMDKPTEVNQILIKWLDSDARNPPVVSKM

SMILES strings stand for the structures. The entries are a selection whose mix differs from that of the whole data set. Activity calls are given as the source filed them. Cut-off read from the data, not from the text of the source: active = activation above about 37%; inactive = the rest.

In this assay the target is Bifunctional epoxide hydrolase 2 (Homo sapiens) (UniProt P34913). Nature of the assay: sEH enzyme activity enhancers – biochemical, human sEH, primary screen (AID 717). Particulars: purified human sEH enzymatic activity, activator screen; at 2 µM; active compounds read high.
As to `CC1(CBr)Cn2c(nc3ccccc3c2=O)S1` (stereo not drawn), the activation is inactive: 12.3%. Regarding `Clc1n[nH]nc1-c1nn[nH][15n]1`, the activation was inactive: -5.5%. As to `O=P1(Nc2ccccn2)COc2ccccc2OC1`, the activation was inactive: -3.9%. As for `Cc1ccc(OCC(=O)OC2CN3CCC2CC3)cc1` (stereo not drawn), the activation is inactive: -20.3%.

For the compound `O=P1(Nc2ncccn2)COc2ccccc2OC1`, the activation is inactive: -4%.

Take `Cc1nn(-c2ccccc2)c2c1P(=O)(N1CCOCC1)N(C)C(c1ccccc1)=N2` (stereo not drawn): the activation is inactive: 10%. Turning to `CCOP1(=S)c2c(C)nn(CCC#N)c2N=C(c2ccc(F)cc2)N1C` (stereo not drawn), the activation was inactive: 3.5%. Regarding `O=[N+]([O-])c1ccc2c(c1)nnn2O`, the activation is inactive: -1%. `CCOP1(=S)c2c(C)nn(CCC#N)c2N=C(c2ccccc2F)N1C` (stereo not drawn): the activation was inactive: -2.9%. With `Cc1cccc(OCC(=O)OC2CN3CCC2CC3)c1` (stereo not drawn), the activation was inactive: 5.1%.

Take `CCN(CC)C(=S)SC(NC=O)C(Cl)(Cl)Cl` (stereo not drawn): the activation was inactive: -10.5%.

As to `ClCCSc1nnc(-c2cccnc2)o1`, the activation was inactive: -14.4%. The figure for `CCC(C)N(CC(C)C)C(=S)SC(NC(C)=O)C(Cl)(Cl)Cl` (stereo not drawn) is inactive: 0.8%; for `COP1(=S)c2c(C)nn(CCC#N)c2N=C(c2ccc(F)cc2)N1C` (stereo not drawn) it is inactive: -6.3%; for `CC1CCN(C(=O)Oc2c(Cl)cc(Cl)c3cccnc23)CC1` it is inactive: -6.6%. The figure for `CCc1nc2c(n1)c1c(non1O)c1c2no[n+]1[O-]` is inactive: -11.5%. Under `O=[N+]([O-])c1cccc2n[nH]nc12` stands inactive: 1.4%; under `CC(=O)N1C2C3N(C(C)=O)C1C1N(C(C)=O)C(C(N1C(C)=O)N3C(C)=O)N2C(C)=O`, inactive: 18.9%; under `CCOP(=O)(Nc1ccccc1)OCC`, inactive: -6.9%. Consider `Cc1c2non([O-])c-2c(C)[n+](=O)[n+]1[O-]`, for which the activation was inactive: -2.9%. Take `Oc1ccccc1CNc1ccccn1`: the activation is inactive: -17.3%. With `CC(C)CC(=O)NC(Sc1ccc(Cl)cc1)C(Cl)(Cl)Cl` (stereo not drawn), the activation is inactive: 4.4%.

For the compound `CN1CCCC(OC(=O)C(c2ccccc2)c2ccccc2)C1` (stereo not drawn), the activation was inactive: -8.7%. Regarding `CCC(=O)N1C2C3N(C(=O)CC)C1C1N(C(=O)CC)C(C(N1C(=O)CC)N3C(=O)CC)N2C(=O)CC`, the activation was inactive: 5.3%. Take `COC(=O)c1cc2c(s1)N=C(c1ccccc1)N(C)P2(=O)N1CCOCC1` (stereo not drawn): the activation is inactive: -3.5%.

`CCOC(=O)NC(Sc1ccccc1)C(Cl)(Cl)Cl` (stereo not drawn): the activation is inactive: 0.6%. With `c1nnnn1CCn1cnnn1`, the activation is inactive: -4%. Regarding `O=P(Nc1nccs1)(c1ccccc1)c1ccccc1`, the activation was inactive: -7.6%.
